The text below walks through data of US10188659B2, “IGF-1R signaling pathway inhibitors useful in the treatment of neurodegenerative diseases” (YISSUM RESEARCH DEVELOPMENT COMPANY OF THE HEBREW …, priority 2013, dated 2019).

For this assay, the system named is IRS1 and IRS2. As to the kind of experiment: IRS1/IRS2 Ser-phosphorylation and degradation, Western blot in A375 cells. For orientation: In western blotting, separated proteins are transferred to a membrane and probed.

For the compound `Oc1cc(CNC(=S)/C=C/c2ccc(O)c(O)c2Br)cc(O)c1O` [Compound 39], the “time of Ser-phosphorylation and degradation of IRS1 and IRS2 after exposure” value fell in the range of 2 to 8 h.
